Source: patent US11143649B2 (dated 2021)

Biological target: IL-2 Antibody
Assay: BSI free-solution binding assay
Conditions: receptor IL-2 Antibody

Interleukin-2: ligand of IL-2 Antibody; antibody-antigen pair of the training set
Kd: 0.0259 nM
